{"sequences": {"note": "Sequences of proteins named here, by UniProt entry; tags and fusion partners are left off.", "UniProt Q9Y5Y9, whole entry": "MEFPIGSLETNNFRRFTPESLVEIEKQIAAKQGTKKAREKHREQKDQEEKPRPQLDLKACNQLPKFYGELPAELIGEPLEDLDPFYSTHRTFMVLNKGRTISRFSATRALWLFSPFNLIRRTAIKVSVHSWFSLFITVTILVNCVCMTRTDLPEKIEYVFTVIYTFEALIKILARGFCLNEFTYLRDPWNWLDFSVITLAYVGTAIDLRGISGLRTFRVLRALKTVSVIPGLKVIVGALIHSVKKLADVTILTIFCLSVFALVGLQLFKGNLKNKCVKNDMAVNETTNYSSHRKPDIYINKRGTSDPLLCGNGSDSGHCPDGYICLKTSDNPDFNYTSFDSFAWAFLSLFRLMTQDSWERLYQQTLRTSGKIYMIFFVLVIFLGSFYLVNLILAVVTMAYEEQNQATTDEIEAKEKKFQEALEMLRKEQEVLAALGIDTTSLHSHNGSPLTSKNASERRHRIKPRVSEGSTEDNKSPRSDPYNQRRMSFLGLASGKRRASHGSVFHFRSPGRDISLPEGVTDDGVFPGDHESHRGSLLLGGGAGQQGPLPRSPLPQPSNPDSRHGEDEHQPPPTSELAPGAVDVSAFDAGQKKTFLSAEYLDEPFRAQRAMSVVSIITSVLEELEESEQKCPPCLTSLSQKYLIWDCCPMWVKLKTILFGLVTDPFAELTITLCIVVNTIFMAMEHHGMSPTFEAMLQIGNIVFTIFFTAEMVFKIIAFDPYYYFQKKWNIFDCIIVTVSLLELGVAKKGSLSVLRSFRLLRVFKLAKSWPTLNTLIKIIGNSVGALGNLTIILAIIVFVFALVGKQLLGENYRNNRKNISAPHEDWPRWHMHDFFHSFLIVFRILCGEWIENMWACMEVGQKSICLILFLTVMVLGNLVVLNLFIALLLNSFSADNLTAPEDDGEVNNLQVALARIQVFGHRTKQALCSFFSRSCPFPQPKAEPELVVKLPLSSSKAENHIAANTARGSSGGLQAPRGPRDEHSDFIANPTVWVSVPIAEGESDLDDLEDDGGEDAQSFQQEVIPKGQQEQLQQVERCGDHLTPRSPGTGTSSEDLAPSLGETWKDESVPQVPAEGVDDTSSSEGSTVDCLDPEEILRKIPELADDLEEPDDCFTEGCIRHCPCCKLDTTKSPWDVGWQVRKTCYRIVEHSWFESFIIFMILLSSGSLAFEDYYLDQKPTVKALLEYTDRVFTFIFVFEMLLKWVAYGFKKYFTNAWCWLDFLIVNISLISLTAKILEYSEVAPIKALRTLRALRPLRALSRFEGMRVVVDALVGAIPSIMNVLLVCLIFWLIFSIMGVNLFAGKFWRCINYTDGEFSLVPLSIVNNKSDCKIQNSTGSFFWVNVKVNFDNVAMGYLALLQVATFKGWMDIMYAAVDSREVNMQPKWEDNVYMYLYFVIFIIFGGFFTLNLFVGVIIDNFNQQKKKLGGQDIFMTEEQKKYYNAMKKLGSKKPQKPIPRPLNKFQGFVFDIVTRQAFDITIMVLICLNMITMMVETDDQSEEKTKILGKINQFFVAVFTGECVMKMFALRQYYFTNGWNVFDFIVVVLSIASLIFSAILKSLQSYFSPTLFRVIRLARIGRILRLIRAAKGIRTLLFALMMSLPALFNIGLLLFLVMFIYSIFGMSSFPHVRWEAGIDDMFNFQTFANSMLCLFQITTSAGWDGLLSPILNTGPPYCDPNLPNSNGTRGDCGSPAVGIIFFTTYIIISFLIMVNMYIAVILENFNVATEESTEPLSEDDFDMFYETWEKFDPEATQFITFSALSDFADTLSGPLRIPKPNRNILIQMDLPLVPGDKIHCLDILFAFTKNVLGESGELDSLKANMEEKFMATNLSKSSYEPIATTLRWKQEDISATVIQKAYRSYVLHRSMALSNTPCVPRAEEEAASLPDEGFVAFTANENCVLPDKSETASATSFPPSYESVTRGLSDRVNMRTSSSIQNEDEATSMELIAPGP", "UniProt Q9WTU3, whole entry": "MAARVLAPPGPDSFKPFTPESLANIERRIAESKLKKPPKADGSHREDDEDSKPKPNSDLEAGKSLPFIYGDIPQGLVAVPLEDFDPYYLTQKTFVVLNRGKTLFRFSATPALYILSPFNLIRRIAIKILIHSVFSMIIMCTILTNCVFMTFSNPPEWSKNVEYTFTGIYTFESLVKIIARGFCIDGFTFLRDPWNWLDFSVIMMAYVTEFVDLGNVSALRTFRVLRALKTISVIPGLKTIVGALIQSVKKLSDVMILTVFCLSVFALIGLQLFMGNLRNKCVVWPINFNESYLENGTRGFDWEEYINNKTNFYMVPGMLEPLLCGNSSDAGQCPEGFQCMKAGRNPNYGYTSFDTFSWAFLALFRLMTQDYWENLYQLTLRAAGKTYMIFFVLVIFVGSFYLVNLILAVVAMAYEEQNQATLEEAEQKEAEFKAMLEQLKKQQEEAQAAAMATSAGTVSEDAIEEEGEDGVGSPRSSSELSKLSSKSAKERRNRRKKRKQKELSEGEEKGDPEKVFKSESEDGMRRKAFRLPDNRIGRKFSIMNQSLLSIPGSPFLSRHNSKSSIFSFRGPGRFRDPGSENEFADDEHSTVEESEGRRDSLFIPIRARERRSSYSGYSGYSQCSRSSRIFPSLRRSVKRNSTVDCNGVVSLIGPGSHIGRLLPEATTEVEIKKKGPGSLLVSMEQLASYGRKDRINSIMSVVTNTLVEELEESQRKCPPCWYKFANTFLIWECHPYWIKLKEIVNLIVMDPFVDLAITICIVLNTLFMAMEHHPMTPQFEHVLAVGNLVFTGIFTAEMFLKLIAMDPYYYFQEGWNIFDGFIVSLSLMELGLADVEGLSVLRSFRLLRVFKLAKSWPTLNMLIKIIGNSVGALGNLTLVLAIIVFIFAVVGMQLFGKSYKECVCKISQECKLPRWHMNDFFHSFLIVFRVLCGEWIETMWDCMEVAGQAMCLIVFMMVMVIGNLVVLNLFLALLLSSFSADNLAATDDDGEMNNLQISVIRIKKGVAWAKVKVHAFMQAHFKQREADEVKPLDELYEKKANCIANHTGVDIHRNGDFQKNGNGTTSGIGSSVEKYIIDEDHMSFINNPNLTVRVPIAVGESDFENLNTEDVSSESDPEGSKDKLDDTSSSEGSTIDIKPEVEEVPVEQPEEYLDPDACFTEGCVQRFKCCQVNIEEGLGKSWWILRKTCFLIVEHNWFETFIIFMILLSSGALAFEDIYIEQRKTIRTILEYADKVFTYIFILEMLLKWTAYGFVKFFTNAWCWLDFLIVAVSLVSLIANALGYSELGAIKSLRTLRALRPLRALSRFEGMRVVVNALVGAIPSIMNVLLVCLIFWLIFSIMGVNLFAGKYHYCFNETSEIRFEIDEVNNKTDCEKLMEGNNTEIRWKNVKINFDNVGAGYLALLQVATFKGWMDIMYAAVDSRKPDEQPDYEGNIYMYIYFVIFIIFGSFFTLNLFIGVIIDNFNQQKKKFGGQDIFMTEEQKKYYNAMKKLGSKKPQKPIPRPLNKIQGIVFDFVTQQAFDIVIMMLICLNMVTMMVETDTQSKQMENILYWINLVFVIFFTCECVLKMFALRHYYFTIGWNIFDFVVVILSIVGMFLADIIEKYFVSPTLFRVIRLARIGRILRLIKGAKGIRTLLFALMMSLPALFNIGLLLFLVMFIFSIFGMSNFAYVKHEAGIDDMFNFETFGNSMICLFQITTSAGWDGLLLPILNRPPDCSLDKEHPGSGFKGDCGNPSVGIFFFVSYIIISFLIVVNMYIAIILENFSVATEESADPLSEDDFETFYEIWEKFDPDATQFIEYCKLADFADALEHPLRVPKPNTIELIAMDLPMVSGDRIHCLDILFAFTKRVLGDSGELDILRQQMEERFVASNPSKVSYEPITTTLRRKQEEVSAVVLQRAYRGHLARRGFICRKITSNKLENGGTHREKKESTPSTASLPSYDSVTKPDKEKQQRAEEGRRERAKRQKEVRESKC", "UniProt P35500, whole entry": "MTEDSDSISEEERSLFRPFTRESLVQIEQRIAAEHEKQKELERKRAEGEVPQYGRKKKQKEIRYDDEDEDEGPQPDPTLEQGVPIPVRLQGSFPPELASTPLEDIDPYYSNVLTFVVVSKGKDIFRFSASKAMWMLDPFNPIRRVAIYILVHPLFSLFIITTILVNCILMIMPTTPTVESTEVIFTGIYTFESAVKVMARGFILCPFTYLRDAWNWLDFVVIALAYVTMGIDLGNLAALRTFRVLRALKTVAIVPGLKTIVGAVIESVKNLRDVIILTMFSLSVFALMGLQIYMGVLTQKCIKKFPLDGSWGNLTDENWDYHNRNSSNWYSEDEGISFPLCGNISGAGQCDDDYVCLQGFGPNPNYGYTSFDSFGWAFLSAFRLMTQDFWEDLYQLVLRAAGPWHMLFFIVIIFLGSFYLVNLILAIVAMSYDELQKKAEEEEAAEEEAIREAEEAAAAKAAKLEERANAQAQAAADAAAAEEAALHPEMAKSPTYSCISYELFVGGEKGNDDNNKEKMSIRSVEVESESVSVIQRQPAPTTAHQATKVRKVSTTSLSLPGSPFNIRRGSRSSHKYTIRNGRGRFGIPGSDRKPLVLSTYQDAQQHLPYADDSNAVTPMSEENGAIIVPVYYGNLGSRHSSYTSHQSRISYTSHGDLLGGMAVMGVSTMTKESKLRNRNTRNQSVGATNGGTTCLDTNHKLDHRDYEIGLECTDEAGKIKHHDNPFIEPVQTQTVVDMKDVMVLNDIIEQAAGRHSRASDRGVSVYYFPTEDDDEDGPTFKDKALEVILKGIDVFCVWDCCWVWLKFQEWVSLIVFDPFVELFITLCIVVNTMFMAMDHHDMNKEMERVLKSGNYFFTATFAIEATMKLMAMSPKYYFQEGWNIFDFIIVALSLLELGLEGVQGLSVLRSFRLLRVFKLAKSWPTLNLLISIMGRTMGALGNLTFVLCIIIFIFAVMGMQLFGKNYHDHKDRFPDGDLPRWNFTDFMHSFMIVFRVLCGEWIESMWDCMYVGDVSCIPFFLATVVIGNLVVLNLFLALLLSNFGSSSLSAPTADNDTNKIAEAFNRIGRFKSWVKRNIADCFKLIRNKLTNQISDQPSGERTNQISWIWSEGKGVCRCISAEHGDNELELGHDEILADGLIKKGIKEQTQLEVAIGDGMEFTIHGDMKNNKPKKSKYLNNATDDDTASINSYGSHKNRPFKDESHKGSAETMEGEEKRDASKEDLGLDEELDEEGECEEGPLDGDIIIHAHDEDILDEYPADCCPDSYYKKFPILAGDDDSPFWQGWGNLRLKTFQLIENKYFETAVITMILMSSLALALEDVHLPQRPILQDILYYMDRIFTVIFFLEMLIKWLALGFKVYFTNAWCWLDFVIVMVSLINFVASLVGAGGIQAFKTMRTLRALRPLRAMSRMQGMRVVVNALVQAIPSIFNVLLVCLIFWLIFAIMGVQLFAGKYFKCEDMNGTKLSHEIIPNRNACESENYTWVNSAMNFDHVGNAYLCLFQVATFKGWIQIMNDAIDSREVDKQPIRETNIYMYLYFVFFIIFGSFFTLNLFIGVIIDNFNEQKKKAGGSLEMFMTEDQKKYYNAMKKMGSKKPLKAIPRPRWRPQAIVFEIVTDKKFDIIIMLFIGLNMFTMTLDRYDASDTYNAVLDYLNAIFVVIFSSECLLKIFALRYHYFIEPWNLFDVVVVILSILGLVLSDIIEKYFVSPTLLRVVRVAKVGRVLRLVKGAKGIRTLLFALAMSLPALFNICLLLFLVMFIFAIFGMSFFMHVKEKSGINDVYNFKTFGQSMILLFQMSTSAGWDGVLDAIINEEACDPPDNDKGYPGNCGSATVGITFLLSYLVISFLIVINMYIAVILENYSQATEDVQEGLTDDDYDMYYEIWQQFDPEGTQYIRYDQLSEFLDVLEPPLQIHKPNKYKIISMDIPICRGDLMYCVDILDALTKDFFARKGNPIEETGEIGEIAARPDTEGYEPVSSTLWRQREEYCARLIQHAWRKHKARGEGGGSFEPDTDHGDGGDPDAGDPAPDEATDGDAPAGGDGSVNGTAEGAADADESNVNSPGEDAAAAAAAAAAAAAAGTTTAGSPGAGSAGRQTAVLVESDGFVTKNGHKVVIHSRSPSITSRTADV"}, "source": "patent US20190256564A1", "about": "“NEMERTEA-DERIVED BIOACTIVE COMPOUNDS” (priority 2016, published 2019)", "key": {"Nav1.5": {"molecular_target": "Nav1.5 (Homo sapiens, UniProt Q14524)", "test": "Two-electrode voltage clamp, Nav1.5 expressed in Xenopus oocytes", "format": "cell-based", "conditions": "6 μM"}, "Artemia salina": {"test_system": "Artemia salina", "format": "in vivo", "procedure": "Alpha-Nemertides were prepared as described in Example 2, above, or by manual synthesis […] on 2-chlorotrityl resin as described in the Material and methods section below. […]. The brine shrimp assay is commonly used as toxicity assay, but is particularly suitable in the current work as a model system for crustaceans. In the first round of experiments Nemertides α-1, α-2, α-5, and α-6 were evaluated. […]. Artemia salina Assay of Alpha-Nemertides. 100 μl of sea water containing about 20-30 brine shrimps were added to each experimental well of a 96-well microplate. 100 μl of peptide solutions were then added to each well. As a control, some wells were filled with 100 μl of seawater containing shrimps and 100 μl milliQwater. The plates were covered and incubated in the dark at room temperature for 24 hours. After 24 hours, 10 second video clips of each well were filmed through a microscope. The shrimps were subsequently counted and categorized as either dead (not moving), affected (moving slowly, mostly at the bottom of the well) or normal (moving normally compared to the control at all levels of the well). The shrimps were then immobilized by addition of 100 μl of methanol. After 1 hour the total number of shrimps in each well was counted and the ratio (dead+affected)/total was calculated."}, "Nav1.8": {"molecular_target": "T1, Nav1.8 (Homo sapiens, UniProt Q9Y5Y9)", "T1 construct": "expressed in transfected cells; host or cells: Xenopus laevis oocytes", "test": "Two-electrode voltage clamp, Nav1.8 expressed in Xenopus oocytes", "format": "cell-based", "conditions": "6 μM", "description": "Nemertide α-1 was investigated for its activity on five vertebrate and three invertebrate voltage-gated sodium channel isoforms (Navs). […] No effect was seen on Nav1.8. Steady-state activation and inactivation curves were constructed to characterize the modulation of Nav channels upon toxin binding. […]. Both the activation and inactivation curves of Nav1.5 channels were altered. […]. To assess the concentration dependence of the α-1-induced modulatory effects on Nav1.6 channels, a concentration-response curve was constructed (FIG. 5B). […]\nElectrophysiology. Whole-cell currents from oocytes were recorded at room temperature (18-22° C.) by the two-electrode voltage clamp technique using a GeneClamp 500 amplifier (Molecular Devices, Sunnyvale, Calif.) controlled by a pClamp data acquisition system (Molecular Devices). Oocytes were placed in a bath containing ND96 solution. Voltage and current electrodes were filled with 3M KCl, and the resistances of both electrodes were kept between 0.7 and 1.5 MO). The elicited currents were sampled at 20 kHz and filtered at 2 kHz using a four-pole, low pass Bessel filter. […] All data was analyzed using pClamp Clampfit 10.0 (Molecular Devices®, Downingtown, Pa.) and Origin 7.5 software (Originlab®, Northampton, Mass.) and is presented as mean±standard error (S.E.M) of at least 3 independent experiments (n≥3)."}, "BgNav1": {"test_system": "BgNav1", "test": "Two-electrode voltage clamp, BgNav1 expressed in Xenopus oocytes", "format": "cell-based, Blattella germanica"}, "Nav1.1": {"molecular_target": "Nav1.1 (Rattus norvegicus, UniProt P04774)", "test": "Two-electrode voltage clamp, Nav1.1 expressed in Xenopus oocytes", "format": "cell-based", "conditions": "6 μM"}, "Nav1.6": {"molecular_target": "Nav1.6 (Mus musculus, UniProt Q9WTU3)", "test": "Two-electrode voltage clamp, Nav1.6 expressed in Xenopus oocytes", "format": "cell-based", "conditions": "6 μM"}, "Carcinus maenas": {"test_system": "Carcinus maenas", "format": "in vivo", "procedure": "The effect of nemertean mucus on crustaceans is well documented, and the shore crab has been used as a model system to assess biological activity in vivo. When injected with active concentrations of nemertide α-1, tremor of the limbs was seen within 1-2 minutes. This was followed by hypertonus, and claws and legs were pulled inwards the body and the crab tilted forward. From this point the crabs remained in a paralytic state. After 20-30 minutes hypertonus was released while paralysis remained. […].\nCarcinus maenas Assay. Shore crabs (20-50 g) were injected with control (500 μl sterile filtered sea water) or nemertide α-1 dissolved in sterile filtered sea water, into the cephalothorax between the first and second walking leg on the right side of the crab. Doses ranged from 0.1-50 μg/kg, in a maximal volume of 500 μl. The crabs were placed into a container filled with seawater and observed. All injections were made in duplicate."}, "DmNav1": {"molecular_target": "DmNav1 (Drosophila melanogaster, UniProt P35500)", "test": "Two-electrode voltage clamp, DmNav1 expressed in Xenopus oocytes", "format": "cell-based", "conditions": "0.8 μM to 8 nM"}}, "note": "“Also recorded” adds a separate entry of the source.", "data": [{"smiles": "CC[C@H](C)[C@@H]1NC(=O)[C@@H](NC(=O)CN)CSSC[C@@H]2NC(=O)[C@@H]3CSSC[C@@H](C(=O)N[C@@H](CC(N)=O)C(=O)N4C[C@H](O)C[C@H]4C(=O)N4C[C@H](O)C[C@H]4C(=O)N[C@@H](CC(N)=O)C(=O)N[C@@H](CCC(N)=O)C(=O)O)NC(=O)[C@H](CCCCN)NC(=O)[C@H](Cc4ccccc4)NC(=O)[C@H](CC(N)=O)NC(=O)[C@H](Cc4c[nH]c5ccccc45)NC(=O)CNC(=O)[C@H](CSSC[C@H](NC(=O)[C@H](Cc4ccccc4)NC(=O)[C@H](CO)NC(=O)CNC(=O)[C@H]([C@@H](C)O)NC(=O)[C@H](C)NC1=O)C(=O)N[C@@H]([C@@H](C)O)C(=O)N[C@@H](CC(C)C)C(=O)N[C@@H](CO)C(=O)N[C@@H](CCCCN)C(=O)NCC(=O)N3)NC(=O)[C@H](CC(N)=O)NC(=O)[C@H](CCCCN)NC(=O)[C@H]([C@@H](C)O)NC2=O", "note": "[Nemertide α-1]", "values": [{"measurement": "effect on inactivation of Nav1.5", "setting": "Nav1.5", "value": "significantly delayed the inactivation"}, {"measurement": "relative potency in brine shrimp assay", "setting": "Artemia salina; 24 hours, compared among native nemertides", "value": "most active"}, {"measurement": "IC50", "setting": "Artemia salina; in vivo, 24 h", "value": "< 1000", "unit": "nM"}, {"measurement": "effect on Nav1.8", "setting": "Nav1.8", "value": "No effect"}, {"measurement": "alteration of activation of BgNav1", "setting": "BgNav1; 10 nM", "value": "No significant alteration of activation"}, {"measurement": "sodium influx through BgNav1", "setting": "BgNav1; 10 nM, 50 ms depolarization from −90 mV to −30 mV", "value": "massive increase in sodium influx"}, {"measurement": "V1/2 of inactivation of BgNav1", "setting": "BgNav1; 10 nM, control −60.4±0.6 mV", "value": "−54.5±1.6", "unit": "mV"}, {"measurement": "effect on inactivation of BgNav1", "setting": "BgNav1; 1 μM", "value": "complete inhibition of the inactivation; also recorded: completely inhibited their inactivation"}, {"measurement": "effect on inactivation of Nav1.1", "setting": "Nav1.1", "value": "significantly delayed the inactivation"}, {"measurement": "effect on inactivation of Nav1.6", "setting": "Nav1.6", "value": "significantly delayed the inactivation"}, {"measurement": "onset of tremor of the limbs after injection", "setting": "Carcinus maenas; active concentrations", "value": "1 to 2", "unit": "min"}, {"measurement": "time after which hypertonus was released while paralysis remained", "setting": "Carcinus maenas; active concentrations", "value": "20 to 30", "unit": "min"}, {"measurement": "dose giving death within minutes", "setting": "Carcinus maenas; crabs, injection", "value": 10, "unit": "µg/kg"}, {"measurement": "dose revealing immediate neurotoxic activity", "setting": "Carcinus maenas; crabs, injection", "value": 1, "unit": "µg/kg"}, {"measurement": "effective dose expressed as molar amount", "setting": "Carcinus maenas; equals 1 μg/kg", "value": "~300", "unit": "femtomol/g"}, {"measurement": "outcome at the higher doses", "setting": "Carcinus maenas; higher doses", "value": "proved lethal"}, {"measurement": "recovery", "setting": "Carcinus maenas; in vivo", "value": "No recovery could be observed"}, {"measurement": "lowest dose to provoke an effect", "setting": "Carcinus maenas; later onset partial paralysis", "value": 1, "unit": "µg/kg"}, {"measurement": "high-dose injections giving a rapid response", "setting": "Carcinus maenas; tremor, hypertonus, paralysis", "value": "5 to 50", "unit": "µg/kg"}, {"measurement": "difference in EC50 between mammalian (Nav1.6) and insect (DmNav1) channels", "setting": "DmNav1", "value": 100, "unit": "fold"}]}]}
